# Measurements published in patent US5552382A, “Gramicidin as a spermicide against sexual transmission of HIV” (priority 1994, dated 1996).
# What was measured:
# MT-4 lymphocytes = conditions: 10 pg to about 10 ng
# [1] = cited from earlier work
substance,measurement,setting,value
gramicidin,Cytotoxicity at the IC50 to IC100 amounts,MT-4 lymphocytes,without any evidence of attendant cytotoxicity
same,Solubility in ethanol,[1]; ethanol,freely soluble
same,"Solubility in water, acids, and alkalies","[1]; water, acids, alkalies",insoluble
